# Test results published in PubChem BioAssay.
# “And” between values parts separate entries of the source, which are not always exact repeats. Identical values can stand only once. The entries are a selection whose mix differs from that of the whole data set. Records with an inconclusive call do not appear. The source made the active and inactive calls. Unless noted, no rule for the calls is given here.
# Tests used:
# [1] = growth inhibition of DIPG glioma cells, dose response, cell-based, SU-DIPG-XIII, MIPE4.0, CellTiter-Glo, qHTS (AID 1347061; cut-off not given, nearly all actives have AC50 up to about 37 µM;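 also: cells exposed to compound for 48 hours before readout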); details: SU-DIPG-XIII viability, CellTiter-Glo ATP luminescence
# [2] = growth inhibition of DIPG glioma cells, dose response, cell-based, JHH-DIPG-1, MIPE4.0, CellTiter-Glo, qHTS (AID 1347062; cut-off not given, nearly all actives have AC50 up to about 27 µM); details: JHH-DIPG-1 viability, CellTiter-Glo ATP luminescence
# [3] = growth inhibition of DIPG glioma cells, dose response, cell-based, SU-DIPG-IV, MIPE4.0, CellTiter-Glo, qHTS (AID 1347063; cut-off not given, nearly all actives have AC50 up to about 30 µM;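 also: compound exposure lasted 48 hours before the viability readout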); details: SU-DIPG-IV viability, CellTiter-Glo ATP luminescence
# [4] = SU-DIPG-VI glioma cell viability, MIPE4.0 library, CellTiter-Glo luminescence, qHTS (AID 1347066; cut-off not given, nearly all actives have AC50 up to about 30 µM;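 also: cells exposed to compound for 48 hours before readout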); details: CellTiter-Glo ATP luminescence
# [5] = SU-DIPG-XXV glioma cell viability, MIPE5.0 library, qHTS (AID 1347068; cut-off not given, nearly all actives have IC50 up to about 30 µM;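 as to IC50: cells exposed to compound for 48 hours before viability readout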)
# [6] = circadian clock period modulators, cell-based, LOPAC library, luminescence reporter (AID 2774); details: circadian reporter cells, at 7 µM, actives lie on both sides;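 also: values are relative to mean of DMSO wells on each plate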
# [7] = system: Aerobactin synthetase IucA (Klebsiella pneumoniae, hypervirulent); assay: IucA enzyme inhibition, biochemical, LOPAC library, absorbance readout (AID 1346212); details: IucA enzyme assay, absorbance (OD) readout; active compounds read low;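 tested at 8 µM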;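 also: 100% = no compound wells and 0% = no enzyme wells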
# [8] = stimulators of nuclear beta-catenin in C2C12, primary screen, imaging, WNT3A-conditioned medium, mouse C2C12, NPC library (AID 1117326; in the data active = nuclear beta-catenin stimulation mostly above about 4.2%, no sharp cut-off; inactive = mostly below about 10%; also: reference of the scale not given here); details: at 10 µM, active compounds read high
# [9] = stimulators of insulin release from INS-1E, primary screen, cell-based, 5 mM glucose, NPC library (AID 1117329;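 active = compound raises insulin release from rat beta cells at 5 mM glucose, no numeric limit stated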; also: reference of the scale not given here); details: rat INS-1E insulin secretion, at 10 µM, active compounds read high
# [10] = growth inhibition of GSK3B-pretreated HCT116 cells – cell-based, CellTiter-Glo, 0.2 to 20 µM (AID 1117336;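 active = compounds lowering colon cancer cell viability after pretreatment blocking the GSK3B kinase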); details: HCT116 viability after GSK3B inhibitor, at 20 µM, active compounds read high
# [11] = inhibition of endothelial tube formation, primary screen, imaging, VEGF stimulated, CD31 staining, tube area, NPC library (AID 1117340;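 active = compound that reduces growth-factor-driven endothelial tube area in a mixed cell culture, no cutoff stated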); details: VEGF-stimulated ADSC/ECFC co-culture, at 10 µM, active compounds read high
# [12] = glucagon-like peptide 1 release enhancers, primary assay, NCI-H716 cell line, NPC library (AID 1117341;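 active = compound raises GLP1 secretion from the human gut endocrine cells, with no numeric limit stated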; also: reference of the scale not given here); details: NCI-H716 cells, at 10 µM, active compounds read high
# [13] = HCT116 colon cancer cell growth inhibition, primary screen, CellTiter-Glo luminescence, NPC library (AID 1117342;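 active = compounds that lower survival of HCT116 colon cancer cells in the luminescence readout, no numeric limit stated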); details: at 20 µM (top of the series)
# [14] = CellTiter-Glo luminescent readout of SW480 viability loss, NPC library primary (AID 1117343;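 active = compounds that lower viability of the colon cancer cells in the luminescence readout, with no numeric limit stated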); details: CellTiter-Glo luminescence; at 20 µM (top of the series)
# [15] = decreased DLD-1 cellular survival, CellTiter-Glo luminescent readout, NPC compound collection, primary HTS (AID 1117346;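 active = compounds that lower survival of DLD-1 colon cancer cells in the luminescence readout, no cutoff given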); details: DLD-1 viability, CellTiter-Glo luminescence; at 20 µM (top of the series)
# [16] = growth inhibition of DIPG glioma cells, dose response, cell-based, SU-DIPG-XVII, MIPE5.0, CellTiter-Glo, qHTS (AID 1347060; cut-off not given, nearly all actives have AC50 up to about 26 µM;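 also: cells exposed to compound for 48 hours before viability readout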); details: SU-DIPG-XVII viability, CellTiter-Glo ATP luminescence
# [17] = viability loss in pontine glioma line – cell-based, SU-DIPG-XXV, MIPE5.0, CellTiter-Glo, qHTS, dose response (AID 1347065; cut-off not given, nearly all actives have AC50 up to about 26 µM;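 also: cells exposed to compound for 48 hours before ATP readout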); details: CellTiter-Glo ATP luminescence
# [18] = JHH-DIPG-1 glioma cell viability, MIPE5.0 library, CellTiter-Glo luminescence, qHTS (AID 1347067; cut-off not given, nearly all actives have AC50 up to about 26 µM;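 also: cells exposed to compound for 48 hours before readout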); details: JHH-DIPG-1 glioma viability, CellTiter-Glo ATP luminescence
structure (smiles),measurement,setting,value
CCn1c(=O)n([C@@H]2CCN(CC3CCCCCCC3)C[C@H]2CO)c2ccccc21,outcome,[1],inactive
same,outcome,[2],inactive
same,outcome,[3],inactive
same,outcome,[4],inactive
same,outcome,[5],inactive
CN(C(=O)Cc1ccc(Cl)c(Cl)c1)[C@@H]1CC[C@]2(CCCO2)C[C@H]1N1CCCC1,period change,[6],inactive: -0.04 h
same,remaining activity,[7],inactive: 104%
CN(C(=O)Cc1ccc(Cl)c(Cl)c1)[C@H]1CC[C@@]2(CCCO2)C[C@@H]1N1CCCC1,nuclear beta-catenin stimulation,[8],inactive: 2.2%
same,insulin secretion stimulation,[9],inactive: 10%
same,viability decrease,[10],inactive: -6.3%
same,tube area decrease,[11],inactive: 5.3%
same,GLP1 secretion stimulation,[12],inactive: -0.9%
same,inhibition of viability,[13],inactive: 42.7%
same,viability decrease (inhibition),[14],inactive: 42.1%
same,viability decrease (inhibition),[15],inactive: 17.9%
CN(C)C1(c2ccccc2)CCC2(CC1)OCCc1c2[nH]c2ccc(F)cc12 (stereo not drawn),AC50,[16],active: 5.9 µM
same,AC50,[17],active: 9.34 µM
same,AC50,[18],active: 8.33 µM
same,outcome,[5],inactive
CN(C(=O)Cc1ccccc1)[C@H]1CC[C@@]2(CCCO2)C[C@@H]1N1CCCC1,nuclear beta-catenin stimulation,[8],inactive: 3.8%
same,insulin secretion stimulation,[9],inactive: 2.2%
same,viability decrease,[10],inactive: 15.2%
same,tube area decrease,[11],inactive: -5.8%
same,GLP1 secretion stimulation,[12],inactive: 1.9%
same,inhibition of viability,[13],inactive: 5.9%
same,viability decrease (inhibition),[14],inactive: -9.8%
same,viability decrease (inhibition),[15],inactive: -7.7%
same,remaining activity,[7],inactive: 112%
CN(C(=O)Cc1ccccc1)[C@@H]1CC[C@]2(CCCO2)C[C@H]1N1CCCC1,period change,[6],inactive: -0.025 h
CN(C(=O)Cc1ccc(Cl)c(Cl)c1)[C@H]1CCCC[C@@H]1N1CCCC1,period change,[6],inactive: 0.09 hour and inactive: 0.02 hour
same,remaining activity,[7],inactive: 98.4%
CN(C(=O)Cc1ccc(Cl)c(Cl)c1)[C@@H]1CCCC[C@H]1N1CCCC1,period change,[6],inactive: -0.02 h
CN(C(=O)Cc1ccc(Cl)c(Cl)c1)[C@@H]1CCCC[C@@H]1N1CCCC1,period change,[6],inactive: -0.075 h
same,remaining activity,[7],inactive: 123%
NC(=O)Nc1ccc([As](=O)(O)O)cc1,nuclear beta-catenin stimulation,[8],inactive: 0.6%
same,insulin secretion stimulation,[9],inactive: -2%
same,viability decrease,[10],inactive: -3.5%
same,tube area decrease,[11],inactive: -20.7%
same,GLP1 secretion stimulation,[12],inactive: -0.9%
same,inhibition of viability,[13],inactive: -8.3%
same,viability decrease (inhibition),[14],active: 82.1%
same,viability decrease (inhibition),[15],inactive: 8.6%
N[C@@H](Cc1ccc([N+]([O-])(CCCl)CCCl)cc1)C(=O)O,AC50,[16],active: 11.8 µM
same,AC50,[17],active: 26.3 µM
same,AC50,[18],active: 2.95 µM
same,IC50,[5],active: 23.5 µM
CN(CCCl)Cc1cc(Cl)c(NC2=NCCN2)c(Cl)c1,period change,[6],inactive: 0.155 h
same,remaining activity,[7],inactive: 117%
